{
  "sequences": {"note": "By UniProt entry, the sequences of proteins in these tests, tags left out.", "UniProt O14965, whole entry": "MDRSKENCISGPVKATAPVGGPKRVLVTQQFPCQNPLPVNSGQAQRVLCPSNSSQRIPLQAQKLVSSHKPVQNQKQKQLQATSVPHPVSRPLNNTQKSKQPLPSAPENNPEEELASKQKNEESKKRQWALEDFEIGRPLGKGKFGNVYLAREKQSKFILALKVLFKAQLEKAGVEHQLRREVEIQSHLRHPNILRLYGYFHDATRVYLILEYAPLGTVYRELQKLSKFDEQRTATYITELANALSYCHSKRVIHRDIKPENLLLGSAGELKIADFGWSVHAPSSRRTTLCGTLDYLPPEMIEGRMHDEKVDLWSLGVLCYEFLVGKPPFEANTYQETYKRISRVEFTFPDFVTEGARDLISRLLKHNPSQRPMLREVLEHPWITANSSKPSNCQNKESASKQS"},
  "source": "patent US8735584B2",
  "about": "(Merck Patent GmbH, priority 2008, dated 2014)",
  "biological_target": "GST-Aurora A (Homo sapiens, UniProt O14965)",
  "assay": "Aurora A IC50, Caliper LC3000 mobility shift assay",
  "conditions": "read-out: Aurora Kinase A Activity (IC50); LC3000 method; 15 uM ATP (the KM value)",
  "data": [
    {"smiles": "CN(C)CCNC(=O)c1ccc2c(=O)[nH]c3nccc(Nc4ccn(CC(=O)Nc5cccc(F)c5)n4)c3c2c1", "values": [
      {"measurement": "IC50", "result": "> 100", "unit": "nM"}
    ]}
  ]
}
